Values quoted from earlier work as cited in PMC6155625 (Molecules : A Journal of Synthetic Chemistry and Natural …, 2017).

System: CYP1A1
Conditions: ref 12 (Schwarz et al.); cited from earlier work

## Hyperforin [HF]
  type of inhibition of CYP1A1: competitive inhibitor
